# From PubChem BioAssay AID651572 (The Scripps Research Institute Molecular Screening Center, 2012)
# Protein sequences, listed by entry. Tags and fused reporters are not part of them. Residues count along the entry.
# UniProt Q62848, 1-136 limits assumed: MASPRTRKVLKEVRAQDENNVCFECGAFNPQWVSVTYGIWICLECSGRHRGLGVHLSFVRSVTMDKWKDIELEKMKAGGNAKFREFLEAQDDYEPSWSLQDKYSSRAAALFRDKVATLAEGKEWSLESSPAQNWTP
# The entries are a selection whose mix differs from that of the whole data set. Some salts and complexes are drawn in separate pieces, as the source files them; their charges need not balance. Activity calls are given as the source filed them.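 Rule for the calls: active = inhibition above a per-plate limit, mean inhibition of low control wells plus 3 SD (cut at about 25% in these data); inactive = the rest.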
# Molecular target: ADP-ribosylation factor GTPase-activating protein 1 (Rattus norvegicus) (UniProt Q62848)
# Assay: blockers of ARFGAP1-stimulated ARF1 GTP hydrolysis – biochemical, fluorescence polarization, GDP tracer, primary screen (AID 651572);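 note: 0% = DMSO wells with enzyme and 100% = wells lacking Arfgap1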
# Settings: GDP FP detection, at 16.5 µM, stronger effect = higher value
# How it was run: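 Repeats: one replicate per compound; assay system: rat Arfgap1 catalytic domain, aa 1-136; times: enzyme reaction 120 min at 25 °C after 20 min preincubation; detection: FP of antibody-bound GDP Alexa 633 tracer, ex 620/em 688 nm; benchmarks: high control wells lacking Arfgap1, low control full reaction with DMSO; reagent: human ARF1(Δ1-17)-GTP substrate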
row,SMILES,inhibition
1,COc1ccc(NP(C)(=O)Oc2ccccc2OC)cc1 (stereo not drawn),inactive: -2.14%
2,Cc1c([N+](=O)[O-])cc([N+](=O)[O-])c(Br)c1[N+](=O)[O-],inactive: 4.48%
3,CCN(CC)CCCOC(=O)C(O)(c1ccccc1)C1CCCCC1 (stereo not drawn),inactive: 5.2%
4,CP(=O)(Nc1ccccc1)Oc1ccc(F)cc1 (stereo not drawn),inactive: 6.12%
5,O=[N+]([O-])c1cc([N+](=O)[O-])c(OC2CCCCC2O)c([N+](=O)[O-])c1 (stereo not drawn),inactive: 3.38%
6,CCCCCOc1ccc(NP(C)(=O)Oc2ccc(Cl)cc2Cl)cc1 (stereo not drawn),inactive: 8.14%
7,CCN(CC)CCCNc1ccccc1[N+](=O)[O-].O=[N+]([O-])c1cc([N+](=O)[O-])c(O)c([N+](=O)[O-])c1,inactive: 4.13%
8,CCOC(=O)c1ccc(NP(C)(=O)Oc2ccc(F)cc2)cc1 (stereo not drawn),inactive: -7.78%
9,COc1ccc(OP(C)(=O)Nc2ccc(SC(F)(F)F)cc2)cc1 (stereo not drawn),inactive: 1.06%
10,O=C(OC1CN2CCC1CC2)c1ccc([N+](=O)[O-])cc1 (stereo not drawn),inactive: 2.63%
11,O=C(OCCN1CCN(CCOCc2ccccc2)CC1)C(O)(c1ccccc1)c1ccccc1,inactive: -11%
12,COc1ccc2c(c1O)-c1c(O)c(OC)cc3c1[C@H](C2)[N+](C)(C)CC3.O=[N+]([O-])c1cc([N+](=O)[O-])c([O-])c([N+](=O)[O-])c1[O-],inactive: 3.13%
13,O=[N+]([O-])c1cc([N+](=O)[O-])c(Nc2ccc(Cl)cc2)c([N+](=O)[O-])c1,inactive: -19.2%
14,CP(=O)(Nc1ccccc1F)Oc1ccccc1 (stereo not drawn),inactive: -3.24%
15,CC(C)c1ccc(OP(C)(=O)Nc2ccc(SC(F)(F)F)cc2)cc1 (stereo not drawn),inactive: 5.07%
16,O=[N+]([O-])c1cc([N+](=O)[O-])c(Nc2ccccn2)c([N+](=O)[O-])c1,inactive: -3.11%
17,Cc1c(NP(C)(=O)Oc2ccc(C(C)C)cc2)c(=O)n(-c2ccccc2)n1C (stereo not drawn),inactive: -3.17%
18,CP(=O)(Nc1ccccn1)Oc1ccccc1 (stereo not drawn),inactive: -1.82%
19,COc1ccccc1OP(C)(=O)Nc1ccc(C)cc1C (stereo not drawn),inactive: 13.3%
20,CCc1ccc(OP(C)(=O)O)cc1,inactive: -1.47%
21,COc1ccccc1OP(C)(=O)Nc1ccc(Br)cc1 (stereo not drawn),inactive: -6.75%
22,COc1ccc(OP(C)(=O)Nc2ccccn2)cc1 (stereo not drawn),inactive: 0.73%

row,SMILES,inhibition
1,CN(C)CCOC(=O)C(O)(c1ccccc1)C1CCCC1 (stereo not drawn),inactive: -1.23%
2,CP(=O)(OCCOc1ccccc1)OCCOc1ccccc1,inactive: 3.93%
3,CP(=O)(Nc1ccc(Cl)cc1Cl)Oc1ccccc1 (stereo not drawn),inactive: 6.2%
4,CCCCCCCCCCCCCCCC1C[N+](C)(C)CCOP(C)(=O)O1 (stereo not drawn),inactive: -16.8%
5,O=C1C(O)=C([N+](=O)[O-])C(=O)C(O)=C1[N+](=O)[O-],inactive: -1.78%
6,Cc1cc(C)cc(OP(C)(=O)Nc2cccc(C(F)(F)F)c2)c1 (stereo not drawn),inactive: 0.31%
7,COc1ccccc1OP(C)(=O)Nc1ccc(C)c(C)c1 (stereo not drawn),inactive: -2.69%
8,COc1ccc(OP(C)(=O)Nc2ccccc2Br)cc1 (stereo not drawn),inactive: 6.43%
9,Nc1ccc2c(ccc3cccnc32)n1.O=[N+]([O-])c1cc([N+](=O)[O-])c(O)c([N+](=O)[O-])c1,inactive: 8.72%
10,CCOC(=O)c1ccc(NP(C)(=O)Oc2ccc(Cl)cc2)cc1 (stereo not drawn),inactive: 3.94%
11,CP(=O)(OC12CC3CC(CC(C3)C1)C2)OC12CC3CC(CC(C3)C1)C2,inactive: -12.4%
12,CC(C)(C)c1ccc(OP(C)(=O)O)cc1,inactive: -1.54%
13,COc1ccccc1OP(C)(=O)Nc1ccccc1Br (stereo not drawn),inactive: 2.54%
14,CP(=O)(Nc1ccc(Cl)cc1)Oc1ccc(F)cc1 (stereo not drawn),inactive: 0.58%
15,CN(C)C(=O)c1c([N+](=O)[O-])cc([N+](=O)[O-])cc1[N+](=O)[O-],inactive: 2.4%
16,CCN(CC)CC(O)COC(=O)C(O)(c1ccccc1)C1CCCCC1 (stereo not drawn),inactive: 6.84%
17,COc1ccc(OP(C)(=O)Nc2ccc(Br)cc2)cc1 (stereo not drawn),inactive: 13.6%
18,COc1ccccc1OP(C)(=O)Nc1c(C)n(C)n(-c2ccccc2)c1=O (stereo not drawn),inactive: -9.73%
19,O=C(OCCCN1CCCC1)C(O)(c1ccccc1)C1CCCCC1 (stereo not drawn),inactive: -9.94%
20,CP(=O)(Oc1ccccc1)N1CCOC1=O (stereo not drawn),inactive: -7.77%
21,CCc1ccc(OP(C)(=O)Nc2cccnc2)cc1 (stereo not drawn),inactive: 1.42%
